Measurements: paper PMC6349905 (Cell Death Discovery, 2019)

Sequences of proteins named here, by UniProt entry; tags and fusion partners are left off.
UniProt Q60492, whole entry: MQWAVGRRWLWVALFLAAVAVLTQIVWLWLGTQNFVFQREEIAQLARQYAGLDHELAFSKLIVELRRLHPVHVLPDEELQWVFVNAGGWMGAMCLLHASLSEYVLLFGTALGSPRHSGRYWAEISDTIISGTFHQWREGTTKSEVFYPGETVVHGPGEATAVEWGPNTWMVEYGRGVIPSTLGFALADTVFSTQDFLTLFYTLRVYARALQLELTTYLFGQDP

Target: T1, sigma-1 receptors (Cavia porcellus, UniProt Q60492)
T1 construct: 100 μg guinea pig brain membrane homogenates; from tissue; host or cells: guinea pig brain membrane homogenates
Experiment: Saturation binding of [3H](+)-pentazocine on guinea pig brain membranes

CC(C)=CCN1CC[C@]2(C)c3cc(O)ccc3C[C@H]1[C@H]2C [[^3H](+)-pentazocine]
Bmax of [3H](+)-pentazocine: 1242.0 ± 77.9 fmol/mg
